The values below come from ChEMBL document CHEMBL1127517 (J Med Chem, 1994).

Chains of the proteins cited; added tags and fusions are not shown.
UniProt P23977, whole entry: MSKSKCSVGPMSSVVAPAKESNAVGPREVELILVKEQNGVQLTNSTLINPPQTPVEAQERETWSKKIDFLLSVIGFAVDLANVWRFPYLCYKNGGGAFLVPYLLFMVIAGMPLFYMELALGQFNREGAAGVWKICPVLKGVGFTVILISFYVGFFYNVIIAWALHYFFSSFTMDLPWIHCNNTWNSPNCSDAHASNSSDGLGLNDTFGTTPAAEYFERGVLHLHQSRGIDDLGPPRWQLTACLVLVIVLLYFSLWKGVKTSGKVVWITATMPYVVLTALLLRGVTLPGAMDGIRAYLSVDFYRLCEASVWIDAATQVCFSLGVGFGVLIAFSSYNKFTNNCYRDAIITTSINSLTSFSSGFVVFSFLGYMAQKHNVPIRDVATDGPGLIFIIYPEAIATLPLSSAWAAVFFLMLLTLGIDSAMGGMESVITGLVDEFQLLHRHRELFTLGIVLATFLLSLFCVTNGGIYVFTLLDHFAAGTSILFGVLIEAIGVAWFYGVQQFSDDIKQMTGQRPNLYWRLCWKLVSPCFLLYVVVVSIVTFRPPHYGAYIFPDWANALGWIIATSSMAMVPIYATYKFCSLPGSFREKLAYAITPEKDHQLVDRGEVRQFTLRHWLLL

In the experiment the target is Sodium-dependent dopamine transporter (Rattus norvegicus, UniProt P23977). The experiment is described as follows: Inhibitory constant towards reuptake of [125I]-12 from dopamine transporter in rat striatal membranes. It counts as cell membranes, Membrane.

On to `Fc1ccc([C@@H]2CCNC[C@H]2COc2ccc3c(c2)OCO3)cc1` [PAROXETINE], for which the inhibitory constant (Ki) was determined as 400 nM.

In general, Ki refers to a dissociation constant, usually derived from enzyme kinetics or from competition with a known ligand. High values mean lower affinity, low ones higher affinity.
